The values below come from ChEMBL document CHEMBL4392832, “Surveying heterocycles as amide bioisosteres within a series of mGlu7 NAMs: Discovery of VU6019278” (Bioorg Med Chem Lett, 2019).

The chains behind the UniProt entries cited, without tags or fusion partners.
UniProt P35400, whole entry: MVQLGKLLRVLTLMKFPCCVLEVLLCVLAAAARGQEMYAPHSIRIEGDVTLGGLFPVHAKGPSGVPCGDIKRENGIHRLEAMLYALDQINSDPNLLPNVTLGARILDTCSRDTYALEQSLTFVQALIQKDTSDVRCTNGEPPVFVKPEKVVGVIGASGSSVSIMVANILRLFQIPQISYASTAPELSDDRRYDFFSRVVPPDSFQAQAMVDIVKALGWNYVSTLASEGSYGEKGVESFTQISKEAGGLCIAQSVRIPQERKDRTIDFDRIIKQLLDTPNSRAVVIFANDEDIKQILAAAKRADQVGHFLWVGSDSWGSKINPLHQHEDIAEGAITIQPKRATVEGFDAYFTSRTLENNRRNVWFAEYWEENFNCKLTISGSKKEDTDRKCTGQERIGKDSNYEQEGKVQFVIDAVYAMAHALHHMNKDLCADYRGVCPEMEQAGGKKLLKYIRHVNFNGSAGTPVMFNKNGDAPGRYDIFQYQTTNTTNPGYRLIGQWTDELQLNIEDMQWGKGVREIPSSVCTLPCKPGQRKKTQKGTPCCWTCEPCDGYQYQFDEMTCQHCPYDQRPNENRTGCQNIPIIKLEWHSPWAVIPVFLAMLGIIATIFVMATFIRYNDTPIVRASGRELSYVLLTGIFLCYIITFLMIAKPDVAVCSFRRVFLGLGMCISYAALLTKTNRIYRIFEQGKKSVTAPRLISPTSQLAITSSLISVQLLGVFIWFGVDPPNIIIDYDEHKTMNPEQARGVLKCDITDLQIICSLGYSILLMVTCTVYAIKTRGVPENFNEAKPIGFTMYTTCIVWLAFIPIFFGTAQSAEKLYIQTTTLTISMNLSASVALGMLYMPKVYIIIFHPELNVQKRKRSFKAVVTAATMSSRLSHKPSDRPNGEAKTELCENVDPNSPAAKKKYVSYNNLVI

The assay has as its target Metabotropic glutamate receptor 7 (Rattus norvegicus, UniProt P35400). The experiment in a line: Negative allosteric modulation of rat mGlu7 receptor expressed in HEK cells co-expressing Galpha15 assessed as reduction in calcium mobilization incubated for 142 secs prior to glutamate addition for 120 secs followed by L-AP4 addition and measured after 40 secs by Fluo-4 AM dye based fluorescence assay. Type of assay: functional, cell-based.

A word on the IC50: it is the point on the concentration scale where inhibition reaches its midpoint.

On to `COc1ccc(-c2nnc(-c3cc(OC(F)(F)F)ccc3-n3cccn3)o2)cc1OC`, for which the IC50 came to 2040 nM.
